In PMC2151269, “Broad phase II and pharmacokinetic study of methoxy-morpholino doxorubicin (FCE 23762-MMRDX) in non-small-cell lung cancer, renal cancer and other solid tumour patients” (British Journal of Cancer, 1998):

Legend:
[1] = Urinary excretion up to 96 h; type: in vivo, human; details: urine collection up to 96 h
[2] = Plasma pharmacokinetics, cycle 1 (HPLC with fluorescence detection); type: in vivo, human

In the case of “13-dihydro-3'-deamino-3'-[2(S)-methoxy-4-morpholinyl] doxorubicin [13-dihydro metabolite]”, the “Urinary excretion as 13-dihydro metabolite, % of the MMRDX dose” value [1] is reported as 2% and the “AUC (0-24 h) as % of MMRDX AUC 0-24 h” value [2] is reported as 12%.
